# Experimental data as given in PubChem BioAssay AID647 (Vanderbilt High Throughput Screening Facility, 2007).
# Only a part is listed here, and it is no random draw. Active and inactive are the calls of the source.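 The calls were made as follows: active = luminescence in either replicate above plate mean of wells with a partly effective reference agonist dose plus 3 SD; inactive = the rest.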
# Assay: effects on beta-adrenoceptor cAMP reporter signal – cell-based, secondary assay 2, luminescence, counter-screen for D1 allosteric modulator project, confirmation (AID 647);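 also: isoproterenol raises cAMP through native beta-adrenoceptor Gs so signal bypasses D1; raw luminescence counts from the Envision reader with one value per duplicate well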
# Settings: HEK293 D1 CRE-luciferase, isoproterenol EC30 counter-screen; at 10 µM; active compounds read high
row,SMILES,luminescence
1,CCOc1ncccc1C(=O)NCC1(N2CCOCC2)CCCCC1,active: 4200
